Article PMC5206724, “Insensitivity to pain induced by a potent selective closed-state Nav1.7 inhibitor” (Scientific Reports, 2017)
Where two headings read alike, the source gives them in different places.

The chains behind the UniProt entries cited, without tags or fusion partners. Where a name states a change or a piece, a line headed by the entry shows the natural chain unless it says otherwise.
UniProt Q99250, whole entry: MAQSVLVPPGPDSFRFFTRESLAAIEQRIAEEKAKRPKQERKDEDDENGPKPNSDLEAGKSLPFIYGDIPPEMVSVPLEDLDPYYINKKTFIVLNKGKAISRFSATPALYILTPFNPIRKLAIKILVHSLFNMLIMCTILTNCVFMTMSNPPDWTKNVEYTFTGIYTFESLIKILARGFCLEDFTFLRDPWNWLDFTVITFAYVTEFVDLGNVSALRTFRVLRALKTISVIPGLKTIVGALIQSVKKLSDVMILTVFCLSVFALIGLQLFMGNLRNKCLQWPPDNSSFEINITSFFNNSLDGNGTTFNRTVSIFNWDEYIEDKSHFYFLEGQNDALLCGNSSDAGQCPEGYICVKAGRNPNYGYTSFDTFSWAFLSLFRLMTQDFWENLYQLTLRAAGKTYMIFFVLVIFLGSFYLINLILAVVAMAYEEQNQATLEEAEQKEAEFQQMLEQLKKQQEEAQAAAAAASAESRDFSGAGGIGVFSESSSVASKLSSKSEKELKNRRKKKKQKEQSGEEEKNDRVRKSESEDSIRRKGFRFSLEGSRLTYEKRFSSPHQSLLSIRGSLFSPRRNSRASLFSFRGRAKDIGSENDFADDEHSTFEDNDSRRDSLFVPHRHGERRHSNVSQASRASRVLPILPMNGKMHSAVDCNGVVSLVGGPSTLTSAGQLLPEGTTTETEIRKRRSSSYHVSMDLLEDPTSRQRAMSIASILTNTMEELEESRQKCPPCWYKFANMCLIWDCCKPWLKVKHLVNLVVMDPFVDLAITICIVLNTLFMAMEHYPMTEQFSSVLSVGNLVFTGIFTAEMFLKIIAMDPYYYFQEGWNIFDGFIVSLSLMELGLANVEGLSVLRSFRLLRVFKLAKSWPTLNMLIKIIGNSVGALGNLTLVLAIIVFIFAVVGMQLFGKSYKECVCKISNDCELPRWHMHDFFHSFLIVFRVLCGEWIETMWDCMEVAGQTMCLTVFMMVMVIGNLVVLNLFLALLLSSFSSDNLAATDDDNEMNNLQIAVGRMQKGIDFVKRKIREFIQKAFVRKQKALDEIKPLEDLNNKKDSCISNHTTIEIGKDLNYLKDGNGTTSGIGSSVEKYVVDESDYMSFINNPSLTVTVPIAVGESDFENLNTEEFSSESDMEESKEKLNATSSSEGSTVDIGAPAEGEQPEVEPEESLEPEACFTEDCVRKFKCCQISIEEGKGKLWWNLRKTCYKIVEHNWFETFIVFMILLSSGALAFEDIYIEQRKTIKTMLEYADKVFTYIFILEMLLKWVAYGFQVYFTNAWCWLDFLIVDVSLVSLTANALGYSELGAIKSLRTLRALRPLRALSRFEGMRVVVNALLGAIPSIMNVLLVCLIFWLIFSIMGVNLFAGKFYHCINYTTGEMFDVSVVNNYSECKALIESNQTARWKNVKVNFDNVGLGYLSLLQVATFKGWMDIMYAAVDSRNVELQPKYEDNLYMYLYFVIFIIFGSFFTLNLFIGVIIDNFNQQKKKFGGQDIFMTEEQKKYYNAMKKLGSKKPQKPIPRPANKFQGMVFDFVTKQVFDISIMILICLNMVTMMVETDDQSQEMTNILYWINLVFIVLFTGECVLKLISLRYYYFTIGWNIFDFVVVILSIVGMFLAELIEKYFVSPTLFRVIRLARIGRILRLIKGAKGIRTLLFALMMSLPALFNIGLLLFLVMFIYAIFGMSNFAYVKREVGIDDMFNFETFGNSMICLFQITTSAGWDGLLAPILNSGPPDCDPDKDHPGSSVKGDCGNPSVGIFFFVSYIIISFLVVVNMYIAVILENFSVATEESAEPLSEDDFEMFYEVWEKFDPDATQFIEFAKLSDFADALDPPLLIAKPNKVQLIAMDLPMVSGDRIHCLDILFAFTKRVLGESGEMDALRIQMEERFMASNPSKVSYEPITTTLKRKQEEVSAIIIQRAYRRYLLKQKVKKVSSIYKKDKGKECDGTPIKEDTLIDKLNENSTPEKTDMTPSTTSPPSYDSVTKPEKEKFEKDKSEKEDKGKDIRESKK
UniProt P35499, whole entry: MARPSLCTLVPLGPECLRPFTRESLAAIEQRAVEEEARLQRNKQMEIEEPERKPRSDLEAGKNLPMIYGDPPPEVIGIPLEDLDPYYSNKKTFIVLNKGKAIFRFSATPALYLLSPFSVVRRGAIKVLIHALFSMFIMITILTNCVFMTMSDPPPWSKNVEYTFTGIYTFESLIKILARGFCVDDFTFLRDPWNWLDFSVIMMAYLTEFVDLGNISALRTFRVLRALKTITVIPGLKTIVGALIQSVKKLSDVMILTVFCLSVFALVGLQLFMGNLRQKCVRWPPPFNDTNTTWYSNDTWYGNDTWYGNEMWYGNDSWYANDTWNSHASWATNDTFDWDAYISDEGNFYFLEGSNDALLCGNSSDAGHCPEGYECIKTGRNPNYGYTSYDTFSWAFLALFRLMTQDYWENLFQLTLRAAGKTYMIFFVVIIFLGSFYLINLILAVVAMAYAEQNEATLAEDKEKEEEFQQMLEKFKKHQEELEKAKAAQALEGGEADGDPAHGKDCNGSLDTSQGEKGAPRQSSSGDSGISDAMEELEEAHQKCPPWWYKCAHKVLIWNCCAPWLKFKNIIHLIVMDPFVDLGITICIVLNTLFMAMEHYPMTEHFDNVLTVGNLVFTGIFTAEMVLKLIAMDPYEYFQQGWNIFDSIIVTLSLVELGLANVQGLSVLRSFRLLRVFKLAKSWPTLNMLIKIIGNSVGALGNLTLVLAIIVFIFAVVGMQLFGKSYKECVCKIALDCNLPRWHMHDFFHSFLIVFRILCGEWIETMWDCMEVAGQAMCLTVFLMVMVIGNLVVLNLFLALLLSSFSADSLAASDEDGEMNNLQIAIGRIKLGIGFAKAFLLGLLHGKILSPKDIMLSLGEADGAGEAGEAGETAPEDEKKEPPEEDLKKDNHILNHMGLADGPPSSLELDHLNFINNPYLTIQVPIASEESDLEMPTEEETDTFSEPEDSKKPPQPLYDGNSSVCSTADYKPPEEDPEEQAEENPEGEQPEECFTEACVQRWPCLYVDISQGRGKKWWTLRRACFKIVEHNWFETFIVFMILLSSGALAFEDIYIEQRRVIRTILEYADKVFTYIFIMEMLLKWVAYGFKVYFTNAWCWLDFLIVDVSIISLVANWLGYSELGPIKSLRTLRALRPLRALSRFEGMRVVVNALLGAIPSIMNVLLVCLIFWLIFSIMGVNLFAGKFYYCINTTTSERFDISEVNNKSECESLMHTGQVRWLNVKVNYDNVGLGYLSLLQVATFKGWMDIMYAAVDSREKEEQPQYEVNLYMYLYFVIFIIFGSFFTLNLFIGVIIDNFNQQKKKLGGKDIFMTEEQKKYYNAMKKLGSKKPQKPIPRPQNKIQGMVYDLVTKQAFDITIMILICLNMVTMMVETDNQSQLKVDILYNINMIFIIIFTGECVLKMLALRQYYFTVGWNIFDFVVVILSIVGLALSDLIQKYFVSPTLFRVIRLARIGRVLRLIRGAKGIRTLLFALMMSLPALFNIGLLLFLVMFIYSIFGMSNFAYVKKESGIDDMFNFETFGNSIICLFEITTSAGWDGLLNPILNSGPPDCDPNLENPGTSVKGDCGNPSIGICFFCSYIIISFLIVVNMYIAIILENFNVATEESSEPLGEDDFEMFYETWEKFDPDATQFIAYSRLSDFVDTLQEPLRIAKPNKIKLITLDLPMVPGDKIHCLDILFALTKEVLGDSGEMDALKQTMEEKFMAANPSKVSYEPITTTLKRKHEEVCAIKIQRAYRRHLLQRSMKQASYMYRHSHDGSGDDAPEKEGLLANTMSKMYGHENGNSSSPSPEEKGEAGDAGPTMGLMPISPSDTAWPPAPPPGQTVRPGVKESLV
UniProt Q9UQD0, whole entry: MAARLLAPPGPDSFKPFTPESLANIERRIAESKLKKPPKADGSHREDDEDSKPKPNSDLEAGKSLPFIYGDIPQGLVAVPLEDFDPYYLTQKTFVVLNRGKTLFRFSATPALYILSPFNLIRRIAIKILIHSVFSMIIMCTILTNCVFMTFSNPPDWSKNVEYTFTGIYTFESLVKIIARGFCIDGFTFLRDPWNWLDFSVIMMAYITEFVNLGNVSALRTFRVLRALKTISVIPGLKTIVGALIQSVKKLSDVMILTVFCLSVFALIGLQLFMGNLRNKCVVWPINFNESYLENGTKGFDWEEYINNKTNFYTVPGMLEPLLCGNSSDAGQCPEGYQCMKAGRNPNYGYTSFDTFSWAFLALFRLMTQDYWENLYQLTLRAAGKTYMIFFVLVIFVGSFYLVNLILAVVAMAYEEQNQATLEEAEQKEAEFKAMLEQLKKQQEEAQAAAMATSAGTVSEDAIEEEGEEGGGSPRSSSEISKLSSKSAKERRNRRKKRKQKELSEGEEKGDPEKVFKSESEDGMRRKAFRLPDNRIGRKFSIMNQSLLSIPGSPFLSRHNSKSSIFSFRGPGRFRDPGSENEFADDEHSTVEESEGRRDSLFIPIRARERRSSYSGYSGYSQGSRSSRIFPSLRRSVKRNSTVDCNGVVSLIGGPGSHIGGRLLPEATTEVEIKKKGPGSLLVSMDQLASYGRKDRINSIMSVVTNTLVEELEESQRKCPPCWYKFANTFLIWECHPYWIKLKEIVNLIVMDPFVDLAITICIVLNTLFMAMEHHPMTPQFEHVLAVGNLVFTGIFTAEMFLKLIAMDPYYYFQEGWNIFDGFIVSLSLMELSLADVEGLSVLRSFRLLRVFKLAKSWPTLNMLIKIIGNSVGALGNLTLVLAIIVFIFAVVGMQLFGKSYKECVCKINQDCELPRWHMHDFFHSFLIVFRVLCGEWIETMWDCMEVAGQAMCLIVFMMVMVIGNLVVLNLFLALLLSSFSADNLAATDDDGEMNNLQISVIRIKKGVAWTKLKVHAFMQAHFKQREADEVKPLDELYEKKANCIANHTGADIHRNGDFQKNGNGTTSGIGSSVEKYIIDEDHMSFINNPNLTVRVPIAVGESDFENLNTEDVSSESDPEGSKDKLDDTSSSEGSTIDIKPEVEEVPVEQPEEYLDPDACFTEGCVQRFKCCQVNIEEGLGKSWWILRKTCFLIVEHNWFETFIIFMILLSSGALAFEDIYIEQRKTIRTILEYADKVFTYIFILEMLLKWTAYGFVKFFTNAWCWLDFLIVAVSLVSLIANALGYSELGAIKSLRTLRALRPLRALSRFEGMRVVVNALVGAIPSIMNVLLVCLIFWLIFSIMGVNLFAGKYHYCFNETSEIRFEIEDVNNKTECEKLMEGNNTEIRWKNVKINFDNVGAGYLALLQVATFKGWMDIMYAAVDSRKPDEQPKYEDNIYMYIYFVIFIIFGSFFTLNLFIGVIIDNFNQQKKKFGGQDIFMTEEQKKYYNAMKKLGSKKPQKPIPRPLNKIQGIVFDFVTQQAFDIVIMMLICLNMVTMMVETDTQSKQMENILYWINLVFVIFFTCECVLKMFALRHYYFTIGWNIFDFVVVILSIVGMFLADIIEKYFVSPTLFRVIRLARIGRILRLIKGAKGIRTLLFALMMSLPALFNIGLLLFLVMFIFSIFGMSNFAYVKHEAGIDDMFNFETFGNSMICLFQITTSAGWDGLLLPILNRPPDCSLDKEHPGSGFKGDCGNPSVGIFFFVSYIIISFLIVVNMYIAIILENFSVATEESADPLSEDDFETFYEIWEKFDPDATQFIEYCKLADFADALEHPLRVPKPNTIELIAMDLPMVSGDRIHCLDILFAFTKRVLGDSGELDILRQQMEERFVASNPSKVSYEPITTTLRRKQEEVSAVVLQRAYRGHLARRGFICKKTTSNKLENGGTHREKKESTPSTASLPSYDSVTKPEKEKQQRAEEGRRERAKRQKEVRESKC
UniProt P41143, whole entry: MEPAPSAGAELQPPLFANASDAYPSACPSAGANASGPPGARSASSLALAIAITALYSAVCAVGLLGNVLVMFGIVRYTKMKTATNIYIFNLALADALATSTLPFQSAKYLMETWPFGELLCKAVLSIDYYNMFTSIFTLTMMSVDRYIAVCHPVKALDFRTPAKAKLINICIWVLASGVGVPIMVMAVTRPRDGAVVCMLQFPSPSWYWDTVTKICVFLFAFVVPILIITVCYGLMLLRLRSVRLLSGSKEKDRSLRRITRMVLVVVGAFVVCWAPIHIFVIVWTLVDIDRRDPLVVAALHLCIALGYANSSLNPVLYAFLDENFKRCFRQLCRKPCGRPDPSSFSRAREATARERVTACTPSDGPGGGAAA
UniProt P41145: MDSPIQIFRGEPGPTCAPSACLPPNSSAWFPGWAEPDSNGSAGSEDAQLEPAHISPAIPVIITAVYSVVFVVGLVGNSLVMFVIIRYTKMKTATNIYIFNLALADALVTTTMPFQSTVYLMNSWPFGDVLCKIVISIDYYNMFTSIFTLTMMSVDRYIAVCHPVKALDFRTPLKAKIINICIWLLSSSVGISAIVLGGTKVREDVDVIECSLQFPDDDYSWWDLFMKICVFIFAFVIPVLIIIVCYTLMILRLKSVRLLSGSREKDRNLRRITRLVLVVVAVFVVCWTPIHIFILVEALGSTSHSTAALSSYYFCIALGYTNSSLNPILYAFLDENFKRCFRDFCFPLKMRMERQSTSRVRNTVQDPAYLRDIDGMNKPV

How the values were obtained:
hNav1.7 [1] = molecular target: T1, hNav1.7 (Homo sapiens, UniProt Q15858); experiment: cell-based
T1 construct: host or cells: HEK293

hNav1.1 [2] = molecular target: T2, hNav1.1 (Homo sapiens, UniProt P35498); experiment: cell-based; type: cell-based
hNav1.2 [3] = molecular target: T3, hNav1.2 (Homo sapiens, UniProt Q99250); experiment: cell-based; type: cell-based
hNav1.4 [4] = molecular target: T4, hNav1.4 (Homo sapiens, UniProt P35499); experiment: cell-based; type: cell-based
hNav1.5 [5] = molecular target: T5, hNav1.5 (Homo sapiens, UniProt Q14524); experiment: cell-based; type: cell-based
hNav1.6 [6] = molecular target: T6, hNav1.6 (Homo sapiens, UniProt Q9UQD0); experiment: cell-based; type: cell-based
hNav1.7 [7] = molecular target: T1, hNav1.7; experiment: cell-based; conditions: manual patch clamp (MPC), holding −120 mV, test −10 mV, 0.1% BSA, 22–24 °C; read-out: pIC50 hNav1.7 (converted)
hNav1.1 [8] = molecular target: T2, hNav1.1; type: cell-based
hNav1.2 [9] = molecular target: T3, hNav1.2; experiment: cell-based; type: cell-based; remark: listed apart in the source
hNav1.4 [10] = molecular target: T4, hNav1.4; experiment: cell-based; type: cell-based; remark: listed apart in the source
hNav1.6 [11] = molecular target: T6, hNav1.6; type: cell-based
mu opioid receptor = mu opioid receptor (Homo sapiens, UniProt P35372); experiment: Opioid receptor cAMP HTRF assay, mu; type: cell-based
delta opioid receptor = delta opioid receptor (Homo sapiens, UniProt P41143); experiment: Opioid receptor cAMP HTRF assay, delta; type: cell-based
kappa opioid receptor = kappa opioid receptor (Homo sapiens, UniProt P41145); experiment: Opioid receptor cAMP HTRF assay, kappa; type: cell-based
hNav1.5 [12] = molecular target: T5, hNav1.5
hNav1.5 [13] = molecular target: T5, hNav1.5; experiment: cell-based
hNav1.3 = hNav1.3 (Homo sapiens, UniProt Q9NY46); type: cell-based

In the case of CSCC[C@@H]1NC(=O)CNC(=O)[C@H](CCC(=O)O)NC(=O)[C@@H]2CSSC[C@H](NC(=O)[C@H](Cc3ccc(O)cc3)NC(=O)[C@@H]3CCCN3C(=O)CN)C(=O)N[C@@H](CCC(N)=O)C(=O)N[C@@H](CCCCN)C(=O)N[C@@H](Cc3c[nH]c4ccccc34)C(=O)N[C@@H](CCSC)C(=O)N[C@@H](CCC(N)=O)C(=O)N[C@@H]([C@@H](C)O)C(=O)N[C@H]3CSSC[C@H](NC(=O)[C@H](C(C)C)NC1=O)C(=O)N[C@@H](CCCNC(=N)N)C(=O)N[C@@H](CC(C)C)C(=O)N[C@@H](Cc1c[nH]c4ccccc14)C(=O)N[C@H](C(=O)N[C@@H](CCCCN)C(=O)N[C@@H](CCCCN)C(=O)N[C@@H](CCCCN)C(=O)N[C@@H](CC(C)C)C(=O)N[C@@H](CC(C)C)C(=O)O)CSSC[C@H](NC(=O)[C@H](CCCCN)NC(=O)[C@H](CCCNC(=N)N)NC(=O)[C@H](CCC(=O)O)NC(=O)[C@H](CO)NC(=O)[C@H](CC(=O)O)NC3=O)C(=O)N2 [JNJ63955918], the IC50 (hNav1.7 [1]; read-out: pIC50 hNav1.7 (converted)) is reported as 0.01 µM, the “Fold Nav1.7 selectivity vs hNav1.1” value (hNav1.1 [2]) is reported as 631 Fold and the IC50 (hNav1.1 [2]; QPatch, CHO cells, holding −60 mV, 0.1% BSA, ~22 °C, ± SEM, read-out: pIC50 hNav1.1 (converted)) is reported as 6.31 µM. The “Fold Nav1.7 selectivity vs hNav1.2” value (hNav1.2 [3]) was 79.4 Fold, the IC50 (hNav1.2 [3]) was 0.794 µM and the “Fold Nav1.7 selectivity vs hNav1.4” value (hNav1.4 [4]) was 1584.9 Fold. The IC50 (hNav1.4 [4]; QPatch, HEK293 cells, holding −75 mV, 0.1% BSA, ~22 °C, ± SEM, read-out: pIC50 hNav1.4 (converted)) was 15.8 µM, the “Fold Nav1.7 selectivity vs hNav1.5” value (hNav1.5 [5]) was >316.2 fold and the IC50 (hNav1.5 [5]) was > 3.16 µM. The “Fold Nav1.7 selectivity vs hNav1.6” value (hNav1.6 [6]) was 251.2 Fold, the IC50 (hNav1.6 [6]; QPatch, CHO cells, holding −60 mV, 0.1% BSA, ~22 °C, ± SEM, read-out: pIC50 hNav1.6 (converted)) was 2.51 µM and the IC50 (hNav1.7 [7]) was 0.01 µM. For the same compound, the “Fold Nav1.7 selectivity vs hNav1.1” value (hNav1.1 [8]) was 1000 Fold, the “Fold Nav1.7 selectivity vs hNav1.2” value (hNav1.2 [9]) was 158.5 Fold and the IC50 (hNav1.2 [9]) was 1.58 µM. The “Fold Nav1.7 selectivity vs hNav1.4” value (hNav1.4 [10]) was 501.2 Fold, the IC50 (hNav1.4 [10]; manual patch clamp, holding −120 mV, test −10 mV, 0.1% BSA, 22–24 °C, read-out: pIC50 hNav1.4 (converted)) was 5.01 µM and the “Fold Nav1.7 selectivity vs hNav1.6” value (hNav1.6 [11]) was 100 Fold. For the same compound, the EC50 (mu opioid receptor; printed as pIC50 or pEC50, read-out: pEC50 mu opioid receptor (agonist) (converted)) was > 2.51 µM, the IC50 (mu opioid receptor; printed as pIC50 or pEC50, read-out: pIC50 mu opioid receptor (antagonist) (converted)) was > 2.51 µM and the EC50 (delta opioid receptor; printed as pIC50 or pEC50, read-out: pEC50 delta opioid receptor (agonist) (converted)) was > 2.51 µM. The IC50 (delta opioid receptor; printed as pIC50 or pEC50, read-out: pIC50 delta opioid receptor (antagonist) (converted)) was > 2.51 µM, the EC50 (kappa opioid receptor; printed as pIC50 or pEC50, read-out: pEC50 kappa opioid receptor (agonist) (converted)) was > 2.51 µM and the IC50 (kappa opioid receptor; printed as pIC50 or pEC50, read-out: pIC50 kappa opioid receptor (antagonist) (converted)) was > 2.51 µM. The “Fold Nav1.7 selectivity vs hNav1.5” value (hNav1.5 [12]) was >1000 Fold and the IC50 (hNav1.5 [13]) was > 10 µM.

With CSCC[C@@H]1NC(=O)CNC(=O)[C@H](CCC(=O)O)NC(=O)[C@@H]2CSSC[C@H](NC(=O)[C@@H](N)Cc3ccc(O)cc3)C(=O)N[C@@H](CCC(N)=O)C(=O)N[C@@H](CCCCN)C(=O)N[C@@H](Cc3c[nH]c4ccccc34)C(=O)N[C@@H](CCSC)C(=O)N[C@@H](Cc3c[nH]c4ccccc34)C(=O)N[C@@H]([C@@H](C)O)C(=O)N[C@H]3CSSC[C@H](NC(=O)[C@H](C(C)C)NC1=O)C(=O)N[C@@H](CCCNC(=N)N)C(=O)N[C@@H](CC(C)C)C(=O)N[C@@H](Cc1c[nH]c4ccccc14)C(=O)N[C@H](C(=O)N[C@@H](CCCCN)C(=O)N[C@@H](CCCCN)C(=O)N[C@@H](CCCCN)C(=O)N[C@@H](CC(C)C)C(=O)N[C@@H](Cc1c[nH]c4ccccc14)C(=O)O)CSSC[C@H](NC(=O)[C@H](CCCCN)NC(=O)[C@H](CCCNC(=N)N)NC(=O)[C@H](CCC(=O)O)NC(=O)[C@H](CO)NC(=O)[C@H](CC(=O)O)NC3=O)C(=O)N2 [ProTX-II, reference compound] the Emax (hNav1.7 [1]; read-out: Fitted Emax hNav1.7) was 88.8 ± 3.1%, the “Fold Nav1.7 selectivity vs hNav1.1” value (hNav1.1 [2]) was 19.8 fold and the “Fold Nav1.7 selectivity vs hNav1.2” value (hNav1.2 [3]) was 99.3 fold. For the same compound, the “Fold Nav1.7 selectivity vs hNav1.3” value (hNav1.3) was 31.4 fold, the “Fold Nav1.7 selectivity vs hNav1.4” value (hNav1.4 [4]) was 99.3 fold and the “Fold Nav1.7 selectivity vs hNav1.5” value (hNav1.5 [5]) was 497.6 fold. For the same compound, the “Fold Nav1.7 selectivity vs hNav1.6” value (hNav1.6 [6]) was 39.5 fold.
